Laboratory results from ChEMBL document CHEMBL1141635, “Novel GSK-3beta inhibitors from sequential virtual screening” (Bioorg Med Chem, 2008).

Chains of the proteins cited; added tags and fusions are not shown. Lines headed by an entry give the natural chain unless they say otherwise; changes in a name come on top.
UniProt P49841: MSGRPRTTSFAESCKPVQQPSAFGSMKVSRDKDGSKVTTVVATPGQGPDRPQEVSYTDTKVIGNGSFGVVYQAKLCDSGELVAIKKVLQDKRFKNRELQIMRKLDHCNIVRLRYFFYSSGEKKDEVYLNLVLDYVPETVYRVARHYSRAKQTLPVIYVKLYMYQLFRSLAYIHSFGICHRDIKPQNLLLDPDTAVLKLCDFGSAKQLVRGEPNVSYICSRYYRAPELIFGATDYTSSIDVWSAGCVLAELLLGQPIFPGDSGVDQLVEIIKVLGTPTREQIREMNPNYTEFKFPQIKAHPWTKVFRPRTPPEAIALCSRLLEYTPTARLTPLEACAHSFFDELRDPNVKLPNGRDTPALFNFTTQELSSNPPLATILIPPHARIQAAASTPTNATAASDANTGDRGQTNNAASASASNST

Biological target: Glycogen synthase kinase-3 beta (Homo sapiens, UniProt P49841)

First: Cc1ccc(S(=O)(=O)n2cc(/C=C3\SC(=S)NC3=O)c3ccccc32)cc1
Second: O=C1NC(=S)S/C1=C\c1ccccc1OS(=O)(=O)c1ccccc1[N+](=O)[O-]
The pIC50 of the first is lower: under 5.00 for the first, 5.81 for the second. The second is the more potent here.

Going from COc1cc(/C=C2\SC(=S)NC2=O)cc(Br)c1OCc1ccccc1C to COc1ccc(-c2ccc(/C=C3\SC(=S)NC3=O)o2)c([N+](=O)[O-])c1, the pIC50 rises from under 5.00 to 5.25. The second is the more potent here.

Going from O=C1NC(=O)/C(=C/c2ccc(-c3cc([N+](=O)[O-])ccc3Cl)o2)S1 to O=C1NC(=S)S/C1=C\c1ccc(O)c([N+](=O)[O-])c1, the pIC50 rises from under 5.00 to 5.40. The second is the more potent here.

Compared with CCCC1=C(c2nnc(C)o2)C(c2cccc(C#N)c2Br)c2c[nH]nc2N1 (centres undefined), O=C1NC(=O)C(c2cn(CCCO)c3ncccc23)=C1c1cnccn1 is 0.85 log units lower in pIC50: 9.15 for the first, 8.30 for the second. The first is the more potent here.

Cc1ccc(/N=C2/NC(=O)S/C2=C\c2ccccc2Cl)cc1 showed a pIC50 of under 5.00.

pIC50: −log10 of the molar value.
